The list shows a part of the results, in another mix than the full data. Some of these compounds have results that are not shown, active ones among them. Calls of active or inactive are those of the source. The call rests on the fitted dose curve.

Amino acid sequences for entries named in this document (tags omitted).
UniProt P00811, whole entry: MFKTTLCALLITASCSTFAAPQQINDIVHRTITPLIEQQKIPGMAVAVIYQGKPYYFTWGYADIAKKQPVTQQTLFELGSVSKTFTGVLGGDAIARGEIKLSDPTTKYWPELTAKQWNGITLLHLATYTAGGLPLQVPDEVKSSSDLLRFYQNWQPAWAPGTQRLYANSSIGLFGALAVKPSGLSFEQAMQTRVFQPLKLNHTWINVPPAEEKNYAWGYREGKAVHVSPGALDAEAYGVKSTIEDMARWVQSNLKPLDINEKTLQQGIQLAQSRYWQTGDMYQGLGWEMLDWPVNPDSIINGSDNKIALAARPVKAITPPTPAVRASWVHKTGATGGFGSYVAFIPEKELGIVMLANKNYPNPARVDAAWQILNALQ

The target in this assay is Beta-lactamase (Escherichia coli (strain K12)) (UniProt P00811). Briefly: Promiscuous and Specific Inhibitors of AmpC Beta-Lactamase (assay without detergent). Further: % of control where 0% means no effect. To be noted: AmpC nitrocefin hydrolysis, absorbance 480 nm, no detergent; at 5.75 µM unless noted. As for the experimental part: NIH Molecular Libraries Screening Centers Network [MLSCN]
NIH Chemical Genomics Center [NCGC]
PI Name: Shoichet, Brian K.
This aggregation profiling approach exploits the sensitivity of aggregate formation to detergent. Inhibition of b-lactamase is measured in the presence and absence of 0.01% Triton X-100. See Pubchem assay "Promiscuous and Specific Inhibitors of AmpC Beta-Lactamase (assay with detergent)" for related screen. Compounds that inhibit only in the absence of detergent are considered likely promiscuous aggregators.
A screen of 1,030 compounds was performed in Brian Shoichet's lab in 96-well format. AmpC activity was measured by following the absorbance at 480 nm. Nitrocefin is a chromogenic substrate: while nitrocefin is yellow (lmax 390 nm), the product of its hydrolysis is red (lmax 486 nm, 17,000 M-1). AmpC beta lactamase was provided by Brian Shoichet and Brian Feng, UCSF.
NCGC Assay Protocol Summary:
20 mM phosphate buffer, pH 7.0
Triton X-100: No Detergent screen: 0.0001%, Detergent screen: 0.01%.
Buffer in columns 3 and 4 as negative control (no enzyme).
5.3 nM AmpC in columns 1, 2, 5-48. Titration of UCSF compound 9 control (from 10 mM, then 1:2) pin-transferred to column 2. Column 1 is neutral (100% activity).
Six uL of reagents were dispensed to 1536-well Greiner black clear bottom plates. Compounds and controls (23 nL) were transferred via Kalypsys PinTool. The plates were incubated for 15 min at room temperature, and then 2 uL of 800 uM solution of nitrocefin was added to start the reaction. The plates were immediately transferred to and read every 20 seconds for 4 min on ViewLux (Perkin-Elmer) High-throughput CCD imager using 480 nm absorbance protocol. During dispense, reagent bottles were kept submerged into 4 deg C water bath.
Keywords: NIH Roadmap, MLSCN, MLI, MLSMR, qHTS, NCGC, AmpC Beta-Lactamase, Aggregation.
For the compound `CN(C)c1cccc(C(=O)NCC2(N(C)C)CCCCC2)c1`, the activity change, negative = inhibition is inactive: -5% [at 28.7 µM]. In the case of `O=C(OC1CN2CCC1CC2)C(CO)(c1ccccc1)c1ccccc1` (stereo not given) it was inactive: 47.3% [at 28.7 µM]; in that of `CN1CC[C@H](OC(=O)[C@](O)(c2ccccc2)C2CCCC2)C1`, inactive: 0.6%; in that of `CN1CCC[C@H](OC(=O)[C@](O)(c2ccccc2)C2CCCC2)C1`, inactive: 3.6%. In the case of `C=C(C)C#C[C@@](O)(C(=O)OC1CCN(C)CC1)c1ccccc1` it was inactive: 4.3%.

Source of the values: PubChem BioAssay AID585 (National Center for Advancing Translational Sciences (NCATS), 2007).
